Assay results: patent US10766888B1, “HMOX1 inducers” (Mitobridge Inc., priority 2019, dated 2020)
In brackets after ≈: the same amount, converted by molar mass.

Experiment: Kinetic solubility
Assay type: physicochemical
Settings: Dulbecco's phosphate buffer saline (DPBS), aqueous buffer, kinetic from dmso stock, DPBS pH 7.4, 25° C., 200 μM test compound
Protocol: Example 144. Kinetic Solubility
10 μL of 10 mM DMSO stock solution were aliquotted to 490 μL of DMSO solution and separately 490 μL of Dulbecco's phosphate buffer saline, DPBS, pH 7.4 solution in 1.2 mL 96-well plates in duplicate. Final concentration was 200 μM of the test compound. Samples were incubated at 25° C. with shaking at 200 rpm for 16 h. Samples were centrifuged at 3500 rpm for 20 min at 25° C., and supernatant was submitted for HPLC analysis.
Kinetic solubility was measured using the following equation: […]

Row | SMILES | solubility at 16 h [µM]
1 | COCCNC(=O)c1ccc2c(c1)nc(Nc1nc3ccc(OC(F)(F)F)cc3o1)n2CC1CCOC1 (centres unmarked) [Example 88, N-(2-methoxyethyl)-1-((tetrahydrofuran-3-yl)methyl)-2-((6-(trifluoromethoxy)benzo[d]oxazol-2-yl)amino)-1H-benzo[d]imidazole-5-carboxamide] | 3.9 (≈ 2.03 µg/mL)
2 | CCn1c(Nc2nc3ccc(OC(F)(F)F)cc3o2)nc2cc(C(=O)NCCOC)ccc21 [Example 85, 1-ethyl-N-(2-methoxyethyl)-2-((6-(trifluoromethoxy)benzo[d]oxazol-2-yl)amino)-1H-benzo[d]imidazole-5-carboxamide] | 3.3 (≈ 1.53 µg/mL)
